The values below are quoted from earlier work in US6562757B1, “Plant-protection treatment of plants and compositions which can be used for this purpose” (Cerexagri S.A., priority 1999, dated 2003).

The conditions of the data set: pH 7.

For the substance cuprous oxide, the “amount of soluble aqueous copper (Cu2+(aq)) released” value was 1 to 10 mg/L.
